This is an account of results in US6869957B1, “Non-peptide tachykinin receptor antagonists” (Eli Lilly and Company, priority 1993, dated 2005).

By UniProt entry, the sequences of proteins in these tests, tags left out.
UniProt P25103, whole entry: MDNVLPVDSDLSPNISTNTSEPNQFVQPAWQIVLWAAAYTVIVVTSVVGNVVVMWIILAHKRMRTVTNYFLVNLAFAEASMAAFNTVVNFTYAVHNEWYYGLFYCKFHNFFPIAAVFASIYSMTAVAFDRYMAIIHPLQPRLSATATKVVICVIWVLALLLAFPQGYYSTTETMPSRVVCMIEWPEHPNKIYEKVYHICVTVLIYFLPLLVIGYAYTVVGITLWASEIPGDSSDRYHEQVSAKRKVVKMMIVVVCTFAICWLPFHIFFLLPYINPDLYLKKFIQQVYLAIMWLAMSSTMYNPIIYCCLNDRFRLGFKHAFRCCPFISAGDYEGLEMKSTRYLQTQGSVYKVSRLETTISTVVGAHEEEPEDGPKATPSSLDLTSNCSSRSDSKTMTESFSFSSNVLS
UniProt P21452, whole entry: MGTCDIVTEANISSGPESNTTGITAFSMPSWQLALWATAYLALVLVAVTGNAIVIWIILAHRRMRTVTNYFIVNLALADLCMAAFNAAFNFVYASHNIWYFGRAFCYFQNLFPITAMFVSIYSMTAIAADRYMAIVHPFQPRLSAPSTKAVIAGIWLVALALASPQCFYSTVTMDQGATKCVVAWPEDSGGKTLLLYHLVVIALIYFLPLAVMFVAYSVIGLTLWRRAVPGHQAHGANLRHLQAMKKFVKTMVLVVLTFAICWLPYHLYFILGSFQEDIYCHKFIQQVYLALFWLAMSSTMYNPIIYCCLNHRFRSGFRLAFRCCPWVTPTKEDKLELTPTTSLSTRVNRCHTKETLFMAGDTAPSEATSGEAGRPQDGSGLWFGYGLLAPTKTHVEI

One test has as its target NK-1 receptor (Homo sapiens, UniProt P25103). Kind of test: NK-1 Receptor Binding Assay (125I-labeled substance P, IM9 cells). To be noted: read-out: NK-1 IC50 nM; inhibits fifty percent of binding of 125I-substance P to IM9 cells.
For a further test, the target named is human NK-2 receptor (Homo sapiens, UniProt P21452). Kind of test: NK-2 Receptor Binding Assay ([125I]iodohistidyl-neurokinin A, CHO-hNK-2R membranes). To be noted: read-out: NK-2 IC50 nM; inhibits fifty percent of binding of [125I]iodohistidyl-neurokinin A to CHO-hNK-2R membranes.

One may read the IC50 as the point on the concentration scale where inhibition reaches its midpoint.

Consider `COc1ccccc1CN(CC(Cc1c[nH]c2ccccc12)NC(=O)CN1CCN(c2ccccc2)CC1)C(=O)CBr` (stereo not shown), for which the 50% inhibitory concentration (IC50) at NK-1 receptor came to 4.4 nM; on human NK-2 receptor, 480 nM.
For `COc1ccccc1CN(CC(Cc1c[nH]c2ccccc12)NC(=O)CNCC(=O)Nc1ccccc1)C(C)=O` (stereo not shown) the same measures were 41.1 nM and 510 nM.
